Results on two compounds are retold here after PubChem BioAssay AID624330 (Southern Research Specialized Biocontainment Screening …, 2012).

Protein sequences, listed by entry. Tags and fused reporters are not part of them.
UniProt Q9H0H5, whole entry: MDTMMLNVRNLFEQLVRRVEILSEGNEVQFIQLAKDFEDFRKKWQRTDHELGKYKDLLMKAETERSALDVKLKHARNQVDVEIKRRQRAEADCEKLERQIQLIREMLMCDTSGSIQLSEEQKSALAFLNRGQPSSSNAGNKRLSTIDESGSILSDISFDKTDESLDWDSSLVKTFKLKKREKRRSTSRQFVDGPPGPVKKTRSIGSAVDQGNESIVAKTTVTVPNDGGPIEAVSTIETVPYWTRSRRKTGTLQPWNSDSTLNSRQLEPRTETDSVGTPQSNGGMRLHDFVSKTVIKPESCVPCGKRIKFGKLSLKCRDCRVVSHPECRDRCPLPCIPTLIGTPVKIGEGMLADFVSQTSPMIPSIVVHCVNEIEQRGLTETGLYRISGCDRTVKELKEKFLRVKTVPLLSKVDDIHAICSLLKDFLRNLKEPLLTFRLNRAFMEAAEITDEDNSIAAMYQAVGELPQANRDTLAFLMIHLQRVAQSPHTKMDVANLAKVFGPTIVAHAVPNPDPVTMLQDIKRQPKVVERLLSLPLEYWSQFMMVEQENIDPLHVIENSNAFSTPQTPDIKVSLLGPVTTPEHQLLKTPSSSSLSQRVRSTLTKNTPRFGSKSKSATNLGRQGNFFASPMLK

Each structure is given as a SMILES string. The list shows a part of the results, in another mix than the full data. Entries with a potency or affinity are not part of this list. Activity calls are given as the source filed them.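 The calls were made as follows: active = first-screen hits whose inhibition reached a set limit at any dose in the follow-up dose series; inconclusive = inhibition above the set first-screen limit but never retested; inactive = the rest.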

Usually inhibition stands for the relative decrease from the control value, in per cent.

The target of this test is Rac GTPase-activating protein 1 (Homo sapiens) (UniProt Q9H0H5). Put plainly: MgcRacGAP GTPase-activating activity inhibitors, confirmation, biochemical, ADP Hunter fluorescence, primary and confirmatory (AID 624330).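 Also: fluorescence reports GDP produced by GAP-driven GTP hydrolysis.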 The following applies: MgcRacGAP-stimulated Rac1 GTP hydrolysis, at 30 µM, active compounds read high, GST-tagged Rac1 F28L mutant substrate.
As to `CCC(=O)N(c1ccccc1)C1(COC)CCN(CCc2cccs2)CC1`, the inhibition is inactive: -1.7%.
For `CCC(=O)N(c1ccccc1)C1(COC)CCN(CCn2nnn(CC)c2=O)CC1`, the inhibition was inactive: 2.13%.
